One block for each binder: values may come before it.
Tests used:
Conditions in all cases: both partners purified
[1] = target: T1, hROR2-Fc, human ROR2 Fc fusion protein (Homo sapiens (Human)., UniProt Q01974); assay: ELISA; purified Fab on the same panel of immobilized recombinant ROR1 proteins; data not shown
T1 construct: human ROR2

The chains behind the UniProt entries cited, without tags or fusion partners. A line that says so, or that is headed by a name, gives the form on record, which may keep a tag or linker.
UniProt Q9Z139, other isoform, or with tags, fused parts or gaps: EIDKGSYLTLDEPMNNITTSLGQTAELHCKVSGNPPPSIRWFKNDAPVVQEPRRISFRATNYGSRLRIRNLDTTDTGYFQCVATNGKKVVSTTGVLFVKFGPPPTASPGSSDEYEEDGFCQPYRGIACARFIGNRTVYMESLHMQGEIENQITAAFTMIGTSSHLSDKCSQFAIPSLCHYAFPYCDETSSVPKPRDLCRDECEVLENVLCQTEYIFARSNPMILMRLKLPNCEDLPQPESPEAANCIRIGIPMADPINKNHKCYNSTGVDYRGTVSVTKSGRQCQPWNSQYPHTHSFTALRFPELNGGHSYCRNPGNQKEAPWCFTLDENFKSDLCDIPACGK

[2] = target: T2, Fc-hROR1kr, Kr domain of human ROR1 fused to the Fc domain of human IgG1 (Homo sapiens (Human)., UniProt Q01973-1); assay: as above
T2 construct: human ROR1, Kr domain, amino acids 312-391; template ROR1 isoform 1 TrueClone cDNA; two residues added after 391; C-terminal fusion to the dimeric Fc; source: HEK 293F, transiently transfected, purified from supernatant (Protein A); not shown: Fc (human IgG1), N-terminal, kept

[3] = target: T3, Fc-hROR1fz, Fz domain of human ROR1 fused to the Fc domain of human IgG1 (Homo sapiens (Human)., UniProt Q01973-1); assay: as above
T3 construct: human ROR1, Fz domain, amino acids 165-299; template ROR1 isoform 1 TrueClone cDNA; C-terminal fusion to the dimeric Fc; source: HEK 293F, transiently transfected, purified from supernatant (Protein A); not shown: Fc (human IgG1), N-terminal, kept

[4] = target: T4, Fc-hROR1ig, Ig domain of human ROR1 fused to the Fc domain of human IgG1 (Homo sapiens (Human)., UniProt Q01973-1); assay: as above
T4 construct: human ROR1, Ig domain, amino acids 51-147; template ROR1 isoform 1 TrueClone cDNA; C-terminal fusion to the dimeric Fc; source: HEK 293F, transiently transfected, purified from supernatant (Protein A); not shown: Fc (human IgG1), N-terminal, kept

[5] = target: T1, hROR2-Fc, human ROR2 Fc fusion protein; assay: ELISA; 100 ng antigen coated per well; 500 ng/mL purified IgG1, 2 h at 37°C; goat anti-human kappa pAbs-HRP
[6] = target: T2, Fc-hROR1kr, Kr domain of human ROR1 …; assay: as above
[7] = target: T3, Fc-hROR1fz, Fz domain of human ROR1 …; assay: as above
[8] = target: T4, Fc-hROR1ig, Ig domain of human ROR1 …; assay: as above
[9] = target: T5, Fc-mROR1, shortened extracellular region of mouse ROR1 fused to the Fc domain of human IgG1 (Mus musculus (Mouse)., UniProt Q9Z139); assay: SPR; Biacore X100; Fc-hROR1 (669 RU) or Fc-mROR1 (429 RU) immobilized on CM5; Fab injected at 1.5 to 100 nM; HBS-EP+ pH 7.4, 30 µL/min; 1:1 Langmuir model
T5 construct: mouse ROR1, shortened extracellular region, amino acids 51-391 (custom synthesized cDNA); two residues added after 391; C-terminal fusion to the dimeric Fc; source: HEK 293F, transiently transfected, purified from supernatant (Protein A); not shown: Fc (human IgG1), N-terminal, kept

[10] = target: T5, Fc-mROR1, shortened extracellular …; assay: SPR; Biacore X100; Fc-hROR1 (669 RU) or Fc-mROR1 (429 RU) immobilized on CM5; bivalent IgG1 injected at 1.5 to 100 nM; HBS-EP+ pH 7.4, 30 µL/min; 1:1 Langmuir model; virtual affinity (avidity), Kd shown in quotes

B1: chimeric rabbit/human Fab Y31, purified Fab-(His)6 (Fab, V domains shown)
VH: QSLEESGGRLVTPGTPLTLTCTVSGIDLNSHWMSWVRQAPGKGLEWIGIIAASGSTYYANWAKGRFTISKTSTTVDLRIASPTTEDTATYFCARDYGDYRLVTFNIWGPGTLVTVSS
VL: ELVMTQTPSSVSAAVGGTVTINCQASQSIGSYLAWYQQKPGQPPKLLIYYASNLASGVPSRFSGSGSGTEYTLTISGVQREDAATYYCLGSLSNSDNVFGGGTELEIL
binding result [1]: no binding
binding result [2]: no binding
binding result [3]: no binding
binding result [4]: no binding

B3: chimeric rabbit/human Fab R12, purified Fab-(His)6 (Fab, V domains shown)
VH: QEQLVESGGRLVTPGGSLTLSCKASGFDFSAYYMSWVRQAPGKGLEWIATIYPSSGKTYYATWVNGRFTISSDNAQNTVDLQMNSLTAADRATYFCARDSYADDGALFNIWGPGTLVTISS
VL: ELVLTQSPSVSAALGSPAKITCTLSSAHKTDTIDWYQQLQGEAPRYLMQVQSDGSYTKRPGVPDRFSGSSSGADRYLIIPSVQADDEADYYCGADYIGGYVFGGGTQLTVT
binding result [1]: no binding
binding result [2]: no binding
binding result [3]: no binding
binding result [4]: no binding
binding result [9]: no binding (tested: 100 nM)

B4: chimeric rabbit/human IgG1 R12 (antibody, V domains shown)
VH: B3 VH
VL: B3 VL
binding result [5]: no binding (tested: 500 ng/mL)
binding result [6]: no binding (tested: 500 ng/mL)
binding result [7]: no binding (tested: 500 ng/mL)
binding result [8]: no binding (tested: 500 ng/mL)
binding result [10]: no binding (tested: 100 nM)

B5: chimeric rabbit/human IgG1 R11 (antibody, V domains shown)
VH: QSVKESEGDLVTPAGNLTLTCTASGSDINDYPISWVRQAPGKGLEWIGFINSGGSTWYASWVKGRFTISRTSTTVDLKMTSLTTDDTATYFCARGYSTYYGDFNIWGPGTLVTISS
VL: ELVMTQTPSSTSGAVGGTVTINCQASQSIDSNLAWFQQKPGQPPTLLIYRASNLASGVPSRFSGSRSGTEYTLTISGVQREDAATYYCLGGVGNVSYRTSFGGGTEVVVK
binding result [5]: no binding (tested: 500 ng/mL)

Other lines, results leading:

binding result [5]: no binding (tested: 500 ng/mL)
binding result [6]: no binding (tested: 500 ng/mL)
binding result [7]: no binding (tested: 500 ng/mL)
binding result [8]: no binding (tested: 500 ng/mL)
B2: chimeric rabbit/human IgG1 Y31 (antibody, V domains shown)
VH: B1 VH
VL: B1 VL

binding result [1]: no binding
B6: chimeric rabbit/human Fab R11, purified Fab-(His)6 (Fab, V domains shown)
VH: B5 VH
VL: B5 VL
